This note sets out measurements from patent publication US8399457B2, “Pharmaceutical compounds” (Neuroscienze Pharmaness S.C. A.R.L., priority 2008, dated 2013).

Sequences of proteins named here, by UniProt entry; tags and fusion partners are left off.
UniProt P42866, whole entry: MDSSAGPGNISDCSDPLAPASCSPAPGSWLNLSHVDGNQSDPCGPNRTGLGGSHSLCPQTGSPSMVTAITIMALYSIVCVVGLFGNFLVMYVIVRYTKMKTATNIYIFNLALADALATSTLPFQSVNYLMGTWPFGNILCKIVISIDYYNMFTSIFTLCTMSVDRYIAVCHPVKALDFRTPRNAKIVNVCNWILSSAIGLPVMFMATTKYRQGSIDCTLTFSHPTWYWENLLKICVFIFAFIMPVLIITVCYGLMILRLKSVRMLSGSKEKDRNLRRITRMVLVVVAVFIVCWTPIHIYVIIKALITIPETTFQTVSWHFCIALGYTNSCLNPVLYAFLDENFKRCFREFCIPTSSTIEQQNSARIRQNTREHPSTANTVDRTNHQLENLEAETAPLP
UniProt P33534, whole entry: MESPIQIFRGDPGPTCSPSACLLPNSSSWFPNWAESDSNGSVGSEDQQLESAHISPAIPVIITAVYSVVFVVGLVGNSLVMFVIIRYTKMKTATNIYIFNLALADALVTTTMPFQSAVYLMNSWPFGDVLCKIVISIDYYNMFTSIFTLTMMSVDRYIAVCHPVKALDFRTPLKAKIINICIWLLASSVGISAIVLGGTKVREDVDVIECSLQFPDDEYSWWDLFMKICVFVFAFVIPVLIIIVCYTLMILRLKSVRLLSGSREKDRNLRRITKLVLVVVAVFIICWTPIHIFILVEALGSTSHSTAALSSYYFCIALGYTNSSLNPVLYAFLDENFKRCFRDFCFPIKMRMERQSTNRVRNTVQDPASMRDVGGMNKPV

Holding throughout (set-up): species or system CD1 male mice
One assay deals with opioidergic receptors μ (Mus musculus, UniProt P42866). The assay is described as follows: Radioreceptorial binding, receptors μ, [3H]-DAMGO displacement in mouse brain membranes. The note with it: read-out: Ki μ, 1 nM [3H]-DAMGO, 25° C.
A further assay addresses opioidergic receptors δ (Mus musculus, UniProt P32300). Nature of the assay: Radioreceptorial binding, receptors δ, [3H]-DPDPE displacement in mouse brain membranes. The note with it: read-out: Ki δ, 1 nM [3H]-DPDPE, 25° C.
The target of the next assay is opioidergic receptors k (Mus musculus, UniProt P33534). The assay is described as follows: Radioreceptorial binding, receptors k, 3H-U 69.593 in mouse brain membranes. The note with it: read-out: Ki k, 3H-U 69.593, 25° C.

By Ki is commonly meant a dissociation constant, usually derived from enzyme kinetics or from competition with a known ligand. With `CCC(=O)N1CCC2CCC(C1)N2C/C=C(\C)c1ccc(Cl)c2ccccc12` (stereo not shown), the inhibitory constant (Ki) at opioidergic receptors μ was 0.0567 µM; at opioidergic receptors δ it was 2 µM; on opioidergic receptors k, 2.5 µM.
On to `CCC(=O)N1C2CCC1CN(C/C=C(\C)c1ccc(Cl)c3ccccc13)CC2` (stereo not shown), for which the inhibition constant Ki at opioidergic receptors δ was more than 5 µM.
